In patent publication US20140357838A1, “N-Terminally Modified Insulin Derivatives” (Novo Nordisk A/S, priority 2011, published 2014):

Assay: Chemical stability of insulin derivatives in 2 mM phosphate (SEC-HPLC and RP-HPLC)
Type: physicochemical
Settings: 4 weeks 37° C. minus 5° C. start sample; for Chemical degradation (%) (4 weeks 37° C.- 0 weeks 5° C.): pH 7.5, RP-HPLC; for HMWP Formation (%) (4 weeks 37° C.- 0 weeks 5° C.): pH 7.5, SEC-HPLC
Description: Chemical stability of an insulin derivative is assessed after incubating insulin derivative in 2 mM phosphate, pH=7.5 at 37° C. for up to 8 weeks. Formation of high molecular weight products (HMWP) is determined by SEC HPLC analysis after 0, 2, 4 and optionally 8 weeks. The results of the SEC method are given as a difference between HMWP formation at 37° C. and 5° C. start sample as a percentage of total absorbance at 215 nm. Chemical degradation products are determined by RP HPLC analysis after 0, 2, 4 and optionally 8 weeks. The results of the RP method are given as a difference between chemical degradation observed at 37° C. and 5° C. start sample as a percentage of total absorbance at 215 nm.
• Solvent: 500 mM NaCl, 10 mM NaH2PO4, 5 mM H3PO4, 50% (v/v) 2-propanol • Flow: 0.5 ml/min • Run time: 30 min • UV Detection: 215 nm • Column: Insulin HMWP column from Waters 7.8×300 mm • Temperature: 50° C.
• Solvent A: 0.09M phosphate buffer pH 3.6 (di-ammoniumhydrogenphosphate), 10% MeCN (v/v) • Solvent B: 80% MeCN (v/v %) • Flow: 0.3 ml/min • Runtime: 33 min • UV Detection: 215 nm • Column: Waters Acquity BEH130 C18 Column 1.7 μm, 150×2.1 mm • Temperature: 50° C. • Gradient: […]

| Compound | Chemical degradation (%) (4 weeks 37° C.- 0 weeks 5° C.) | HMWP Formation (%) (4 weeks 37° C.- 0 weeks 5° C.) |
| --- | --- | --- |
| CC[C@H](C)[C@H](NC(=O)CN(C)C)C(=O)N[C@H](C(=O)N[C@@H](CCC(=O)O)C(=O)N[C@@H](CCC(N)=O)C(=O)N[C@H]1CSSC[C@@H]2NC(=O)[C@@H]3CSSC[C@H](NC(=O)[C@@H](NC(=O)[C@H](Cc4ccccc4)N(C)C)C(C)C)C(=O)N[C@@H](CCC(N)=O)C(=O)N[C@@H](Cc4c[nH]cn4)C(=O)N[C@@H](CC(C)C)C(=O)N[C@@H](CSSC[C@H](NC1=O)C(=O)N[C@@H]([C@@H](C)O)C(=O)N[C@@H](CO)C(=O)N3)C(=O)NCC(=O)N[C@@H](CO)C(=O)N[C@@H](Cc1c[nH]cn1)C(=O)N[C@@H](CC(C)C)C(=O)N[C@@H](C(C)C)C(=O)N[C@@H](CCC(=O)O)C(=O)N[C@@H](C)C(=O)N[C@@H](CC(C)C)C(=O)N[C@@H](Cc1ccc(O)cc1)C(=O)N[C@@H](CC(C)C)C(=O)N[C@@H](C(C)C)C(=O)N[C@H](C(=O)NCC(=O)N[C@@H](CCC(=O)O)C(=O)N[C@@H](CCCNC(=N)N)C(=O)NCC(=O)N[C@@H](Cc1ccccc1)C(=O)N[C@@H](Cc1c[nH]cn1)C(=O)N[C@@H](Cc1ccc(O)cc1)C(=O)N[C@H](C(=O)N1CCC[C@H]1C(=O)N[C@@H](CCCCNC(=O)COCCOCCNC(=O)COCCOCCNC(=O)CC[C@H](NC(=O)CCCCCCCCCCCCCCCCCCC(=O)O)C(=O)O)C(=O)O)[C@@H](C)O)CSSC[C@@H](C(=O)N[C@@H](CC(N)=O)C(=O)O)NC(=O)[C@H](Cc1ccc(O)cc1)NC(=O)[C@H](CC(N)=O)NC(=O)[C@H](CCC(=O)O)NC(=O)[C@H](CC(C)C)NC(=O)[C@H](CCC(N)=O)NC(=O)[C@H](CCC(=O)O)NC(=O)[C@H](CC(C)C)NC(=O)[C@H](CO)NC2=O)C(C)C [Example 2, A1(N^α,N^α-Dimethyl), A10C, A14E, B1(N^α,N^α-dimethyl), B3C, B25H, B29K(N^εeicosanedioyl-gGlu-2×OEG), desB30 Human Insulin] | 2.5 | – |
| CC[C@H](C)[C@H](NC(=O)CN(C)C)C(=O)N[C@H](C(=O)N[C@@H](CCC(=O)O)C(=O)N[C@@H](CCC(N)=O)C(=O)N[C@H]1CSSC[C@@H]2NC(=O)[C@@H]3CSSC[C@H](NC(=O)[C@@H](NC(=O)CN(C)C)C(C)C)C(=O)N[C@@H](CCC(N)=O)C(=O)N[C@@H](Cc4c[nH]cn4)C(=O)N[C@@H](CC(C)C)C(=O)N[C@@H](CSSC[C@H](NC1=O)C(=O)N[C@@H]([C@@H](C)O)C(=O)N[C@@H](CO)C(=O)N3)C(=O)NCC(=O)N[C@@H](CO)C(=O)N[C@@H](Cc1c[nH]cn1)C(=O)N[C@@H](CC(C)C)C(=O)N[C@@H](C(C)C)C(=O)N[C@@H](CCC(=O)O)C(=O)N[C@@H](C)C(=O)N[C@@H](CC(C)C)C(=O)N[C@@H](Cc1ccc(O)cc1)C(=O)N[C@@H](CC(C)C)C(=O)N[C@@H](C(C)C)C(=O)N[C@H](C(=O)NCC(=O)N[C@@H](CCC(=O)O)C(=O)N[C@@H](CCCNC(=N)N)C(=O)NCC(=O)N[C@@H](Cc1ccccc1)C(=O)N[C@@H](Cc1ccccc1)C(=O)N[C@@H](Cc1ccc(O)cc1)C(=O)N1CCC[C@H]1C(=O)N[C@@H](CCCCNC(=O)CC[C@H](NC(=O)CCCCCCCCCCCCCCCCC(=O)O)C(=O)O)C(=O)O)CSSC[C@@H](C(=O)N[C@@H](CC(N)=O)C(=O)O)NC(=O)[C@H](Cc1ccc(O)cc1)NC(=O)[C@H](CC(N)=O)NC(=O)[C@H](CCC(=O)O)NC(=O)[C@H](CC(C)C)NC(=O)[C@H](CCC(N)=O)NC(=O)[C@H](CCC(=O)O)NC(=O)[C@H](CC(C)C)NC(=O)[C@H](CO)NC2=O)C(C)C [Example 9, A1(N^α,N^α-Dimethyl), A10C, A14E, B1G(N^α,N^α-dimethyl), B3C, desB27, B29K(N^εoctadecanedioyl-gGlu), desB30 Human Insulin] | – | 0.7 |
| CC[C@H](C)[C@H](NC(=O)CN(C)C)C(=O)N[C@H](C(=O)N[C@@H](CCC(=O)O)C(=O)N[C@@H](CCC(N)=O)C(=O)N[C@H]1CSSC[C@@H]2NC(=O)[C@@H]3CSSC[C@H](NC(=O)[C@@H](NC(=O)[C@H](Cc4ccccc4)N(C)C)C(C)C)C(=O)N[C@@H](CCC(N)=O)C(=O)N[C@@H](Cc4c[nH]cn4)C(=O)N[C@@H](CC(C)C)C(=O)N[C@@H](CSSC[C@H](NC1=O)C(=O)N[C@@H]([C@@H](C)O)C(=O)N[C@@H](CO)C(=O)N3)C(=O)NCC(=O)N[C@@H](CO)C(=O)N[C@@H](Cc1c[nH]cn1)C(=O)N[C@@H](CC(C)C)C(=O)N[C@@H](C(C)C)C(=O)N[C@@H](CCC(=O)O)C(=O)N[C@@H](C)C(=O)N[C@@H](CC(C)C)C(=O)N[C@@H](Cc1c[nH]cn1)C(=O)N[C@@H](CC(C)C)C(=O)N[C@@H](C(C)C)C(=O)N[C@H](C(=O)NCC(=O)N[C@@H](CCC(=O)O)C(=O)N[C@@H](CCCNC(=N)N)C(=O)NCC(=O)N[C@@H](Cc1ccccc1)C(=O)N[C@@H](Cc1c[nH]cn1)C(=O)N[C@@H](Cc1ccc(O)cc1)C(=O)N[C@H](C(=O)N1CCC[C@H]1C(=O)N[C@@H](CCCCNC(=O)COCCOCCNC(=O)COCCOCCNC(=O)CC[C@H](NC(=O)CCCCCCCCCCCCCCCCC(=O)O)C(=O)O)C(=O)O)[C@@H](C)O)CSSC[C@@H](C(=O)N[C@@H](CC(N)=O)C(=O)O)NC(=O)[C@H](Cc1ccc(O)cc1)NC(=O)[C@H](CC(N)=O)NC(=O)[C@H](CCC(=O)O)NC(=O)[C@H](CC(C)C)NC(=O)[C@H](CCC(N)=O)NC(=O)[C@H](CCC(=O)O)NC(=O)[C@H](CC(C)C)NC(=O)[C@H](CO)NC2=O)C(C)C [Example 13, A1(N^α,N^α-Dimethyl), A10C, A14E, B1(N^α,N^α-dimethyl), B3C, B16H, B25H, B29K(N^εoctadecanedioyl-gGlu-2×OEG), desB30 Human Insulin] | – | 0.5 |
| CC[C@H](C)[C@H](NC(=O)CN(C)C)C(=O)N[C@H](C(=O)N[C@@H](CCC(=O)O)C(=O)N[C@@H](CCC(N)=O)C(=O)N[C@H]1CSSC[C@@H]2NC(=O)[C@@H]3CSSC[C@H](NC(=O)[C@@H](NC(=O)[C@H](Cc4ccccc4)N(C)C)C(C)C)C(=O)N[C@@H](CCC(N)=O)C(=O)N[C@@H](Cc4c[nH]cn4)C(=O)N[C@@H](CC(C)C)C(=O)N[C@@H](CSSC[C@H](NC1=O)C(=O)N[C@@H]([C@@H](C)O)C(=O)N[C@@H](CO)C(=O)N3)C(=O)NCC(=O)N[C@@H](CO)C(=O)N[C@@H](Cc1c[nH]cn1)C(=O)N[C@@H](CC(C)C)C(=O)N[C@@H](C(C)C)C(=O)N[C@@H](CCC(=O)O)C(=O)N[C@@H](C)C(=O)N[C@@H](CC(C)C)C(=O)N[C@@H](Cc1ccc(O)cc1)C(=O)N[C@@H](CC(C)C)C(=O)N[C@@H](C(C)C)C(=O)N[C@H](C(=O)NCC(=O)N[C@@H](CCC(=O)O)C(=O)N[C@@H](CCCNC(=N)N)C(=O)NCC(=O)N[C@@H](Cc1ccccc1)C(=O)N[C@@H](Cc1c[nH]cn1)C(=O)N[C@@H](Cc1ccc(O)cc1)C(=O)N[C@H](C(=O)N1CCC[C@H]1C(=O)N[C@@H](CCCCNC(=O)CC[C@H](NC(=O)CCCCCCCCCCCCCCCCC(=O)O)C(=O)O)C(=O)O)[C@@H](C)O)CSSC[C@@H](C(=O)N[C@@H](CC(N)=O)C(=O)O)NC(=O)[C@H](Cc1ccc(O)cc1)NC(=O)[C@H](CC(N)=O)NC(=O)[C@H](CCC(=O)O)NC(=O)[C@H](CC(C)C)NC(=O)[C@H](CCC(N)=O)NC(=O)[C@H](CCC(=O)O)NC(=O)[C@H](CC(C)C)NC(=O)[C@H](CO)NC2=O)C(C)C [Example 3, A1(N^α,N^α-Dimethyl), A10C, A14E, B1(N^α,N^α-dimethyl), B3C, B25H, B29K(N^εoctadecanedioyl-gGlu), desB30 Human Insulin] | – | 0.7 |
| CC[C@H](C)[C@H](NC(=O)CN(C)C)C(=O)N[C@H](C(=O)N[C@@H](CCC(=O)O)C(=O)N[C@@H](CCC(N)=O)C(=O)N[C@H]1CSSC[C@@H]2NC(=O)[C@@H]3CSSC[C@H](NC(=O)[C@@H](NC(=O)CN(C)C)C(C)C)C(=O)N[C@@H](CCC(N)=O)C(=O)N[C@@H](Cc4c[nH]cn4)C(=O)N[C@@H](CC(C)C)C(=O)N[C@@H](CSSC[C@H](NC1=O)C(=O)N[C@@H]([C@@H](C)O)C(=O)N[C@@H](CO)C(=O)N3)C(=O)NCC(=O)N[C@@H](CO)C(=O)N[C@@H](Cc1c[nH]cn1)C(=O)N[C@@H](CC(C)C)C(=O)N[C@@H](C(C)C)C(=O)N[C@@H](CCC(=O)O)C(=O)N[C@@H](C)C(=O)N[C@@H](CC(C)C)C(=O)N[C@@H](Cc1ccc(O)cc1)C(=O)N[C@@H](CC(C)C)C(=O)N[C@@H](C(C)C)C(=O)N[C@H](C(=O)NCC(=O)N[C@@H](CCC(=O)O)C(=O)N[C@@H](CCCNC(=N)N)C(=O)NCC(=O)N[C@@H](Cc1ccccc1)C(=O)N[C@@H](Cc1ccccc1)C(=O)N[C@@H](Cc1ccc(O)cc1)C(=O)N1CCC[C@H]1C(=O)N[C@@H](CCCCNC(=O)COCCOCCNC(=O)COCCOCCNC(=O)CC[C@H](NC(=O)CCCCCCCCCCCCCCCCC(=O)O)C(=O)O)C(=O)O)CSSC[C@@H](C(=O)N[C@@H](CC(N)=O)C(=O)O)NC(=O)[C@H](Cc1ccc(O)cc1)NC(=O)[C@H](CC(N)=O)NC(=O)[C@H](CCC(=O)O)NC(=O)[C@H](CC(C)C)NC(=O)[C@H](CCC(N)=O)NC(=O)[C@H](CCC(=O)O)NC(=O)[C@H](CC(C)C)NC(=O)[C@H](CO)NC2=O)C(C)C [Example 14, A1(N^α,N^α-Dimethyl), A10C, A14E, B1G(N^α,N^α-dimethyl), B3C, desB27, B29K(N^εoctadecanedioyl-gGlu-2×OEG), desB30 Human Insulin] | 9.7 | – |
